From patent US9765037B2 (dated 2017)

By UniProt entry, the sequences of proteins in these tests, tags left out. Residues count along the entry.
UniProt A3FQ16, 1-538: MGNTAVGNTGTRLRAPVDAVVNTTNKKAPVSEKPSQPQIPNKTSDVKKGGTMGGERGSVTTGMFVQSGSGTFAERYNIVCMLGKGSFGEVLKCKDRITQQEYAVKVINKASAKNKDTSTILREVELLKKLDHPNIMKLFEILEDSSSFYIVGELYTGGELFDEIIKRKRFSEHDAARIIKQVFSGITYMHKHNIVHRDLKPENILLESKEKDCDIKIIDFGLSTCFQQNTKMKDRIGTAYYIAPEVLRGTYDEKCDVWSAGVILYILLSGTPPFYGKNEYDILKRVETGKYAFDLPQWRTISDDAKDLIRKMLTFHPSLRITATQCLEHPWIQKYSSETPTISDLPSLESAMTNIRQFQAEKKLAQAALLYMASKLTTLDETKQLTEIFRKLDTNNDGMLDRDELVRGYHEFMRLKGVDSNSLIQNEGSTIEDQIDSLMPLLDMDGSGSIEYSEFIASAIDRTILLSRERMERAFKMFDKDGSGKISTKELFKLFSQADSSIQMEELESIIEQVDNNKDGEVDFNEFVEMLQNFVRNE
UniProt Q9BJF5, 1-507: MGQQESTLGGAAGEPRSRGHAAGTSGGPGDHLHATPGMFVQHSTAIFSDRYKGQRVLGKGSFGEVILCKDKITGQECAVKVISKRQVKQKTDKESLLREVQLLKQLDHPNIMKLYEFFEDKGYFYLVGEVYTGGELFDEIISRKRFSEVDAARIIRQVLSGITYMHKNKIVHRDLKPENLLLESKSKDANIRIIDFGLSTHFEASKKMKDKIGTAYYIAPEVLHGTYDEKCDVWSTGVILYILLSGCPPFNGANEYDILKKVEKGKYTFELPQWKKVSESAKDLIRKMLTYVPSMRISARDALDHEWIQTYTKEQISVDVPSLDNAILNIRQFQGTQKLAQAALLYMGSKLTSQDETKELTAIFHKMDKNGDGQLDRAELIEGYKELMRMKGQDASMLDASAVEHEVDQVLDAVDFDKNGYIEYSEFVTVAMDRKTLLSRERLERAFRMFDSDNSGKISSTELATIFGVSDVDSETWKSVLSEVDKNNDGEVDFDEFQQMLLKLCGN

How the values were obtained:
[1] = tested on: P. falciparum NF-54 strain gametocytes; format: cell-based, Plasmodium falciparum
CpCDPK1 = CpCDPK1 (Cryptosporidium parvum (strain Iowa II), UniProt A3FQ16)
TgCDPK1 = TgCDPK1 (Toxoplasma gondii, UniProt Q9BJF5); assay: biochemical; conditions: IC50 values

SMILES: CCOc1ccc2cc(-c3nn(CC4CCNCC4)c4ncnc(N)c34)ccc2c1 [Compound 29, 3-(6-ethoxynaphthalen-2-yl)-1-(piperidin-4-ylmethyl)-1H-pyrazolo[3,4-d]pyrimidin-4-amine]
- prevalence of oocyst infections ([1]; 100 nM): reduced the prevalence of oocyst infections
- infection of A. stephensi midguts ([1]; 1 μM or 3 μM): prevented
- infective sporozoites in dissected salivary glands of A. stephensi ([1]; 3 μM): complete absence of infective sporozoites
- P. falciparum exflagellation ([1]; 1 and 3 μM final concentration in blood): complete suppression; also recorded: prevented the exflagellation of microgametes
- P. falciparum exflagellation events, repeat experiment ([1]; 1 or 3 μM): suppressed completely

SMILES: CC(C)Oc1ccc2cc(-c3nn(C(C)C)c4ncnc(N)c34)ccc2c1 [Compound 11, 3-(6-isopropoxynaphthalen-2-yl)-1-isopropyl-1H-pyrazolo[3,4-d]pyrimidin-4-amine]
- IC50 (CpCDPK1; read-out: IC50 (μM) CpCDPK1): 0.0573 µM

SMILES: CC(C)(C)n1nc(-c2cccc3ccccc23)c2c(N)ncnc21 [NA-PP1]
- IC50 (TgCDPK1): 989 nM and 978 nM

SMILES: CC(C)n1nc(-c2ccc3ccccc3c2)c2c(N)ncnc21 [Compound 7p, 1-isopropyl-3-(naphthalen-2-yl)-1H-pyrazolo[3,4-d]pyrimidin-4-amine]
- IC50 (CpCDPK1; read-out: CpCDPK1 IC50): 0.01 µM

Where “and” joins values, the source holds several entries; their conditions need not be identical. Equal values may be shown once. Entries after “also recorded” stand apart in the source; their conditions may differ. Read-outs that look alike come from different tables or passages of the source.
